Target: human metabotropic glutamate 7 receptor (hmGlu7) (Homo sapiens, UniProt Q14831)
Assay: mGlu7 assay on HEK-expressing human mGlu7: fluorescent cell based-Ca2+ mobilization assay (FLIPR), inhibition of EC80 L-AP4 response
Settings: read-out: Ca^2+ Flux (mean IC50); HEK-293 cells expressing hmGlu7, EC80 L-AP4; mean of at least three independent experiments in duplicate
From the text: mGlu7 Assay on HEK-Expressing Human mGLU7
The cDNA encoding the human metabotropic glutamate 7 receptor (hmGlu7), (accession number NM_181874.2, NCBI Nucleotide database browser), was subcloned into an expression vector containing also the hygromycin resistance gene. In parallel, the cDNA encoding a G protein allowing redirection of the activation signal to intracellular calcium flux was subcloned into a different expression vector containing also the Puromycin resistance gene. Transfection of both these vectors into HEK293 cells with PolyFect reagent (Qiagen) according to supplier's protocol, and hygromycin and puromycin treatment allowed selection of antibiotic resistant cells which had integrated stably one or more copies of the plasmids. Positive cellular clones expressing hmGlu7 were identified in a functional assay measuring changes in calcium fluxes in response to glutamate and L-AP4 or known mGlu7 orthosteric antagonists.
HEK-293 cells expressing hmGlu7 were maintained in media containing DMEM, Fetal Bovine Serum (10%), GlutaMAX™ (2 mM), penicillin (100 units/mL), streptomycin (100 μg/mL), geneticin (100 μg/mL) and hygromycin-B (40 μg/mL) and puromycin (1 μg/mL) at 37° C. with 5% CO2 in a humidified atmosphere.
Human mGlu7 HEK-293 cells were plated out 24 hours prior to a fluorescent cell-based calcium mobilization assay using FLIPR^384 assay (Molecular Device, Sunnyvale, CA, USA) in black-walled, clear-bottomed, poly-L-ornithine-coated 384-well plates at a density of 25,000 cells/well in a glutamine/glutamate free DMEM medium containing fetal bovine serum (10%), penicillin (100 units/mL), streptomycin (100 μg/mL) and doxycyline (1 μg/ml) at 37° C. with 5% CO2 in a humidified atmosphere.
On the day of the assay, the medium was aspirated and the cells were loaded with a 3 μM solution of Fluo4-AM (LuBioScience, Lucerne, Switzerland) in 0.03% pluronic acid. After 1 hour at 37° C./5% CO2, the non incorporated dye was removed by washing cell plate with the assay buffer. All assays were performed in a pH 7.4 buffered-Solution containing 20 mM HEPES, 143 mM NaCl, 6 mM KCl, 1 mM MgSO4, 1 mM CaCl2, 0.125 mM sulfinpyrazone and 0.1% glucose.
After 10 s of basal fluorescence recording, various concentrations of the compounds of the invention were added to the cells. Changes in fluorescence levels were first monitored for 180 s in order to detect any agonist activity of the compounds. Then the cells were stimulated by an EC80 L-AP4 concentration for an additional 110 s in order to measure inhibiting activities of the compounds of the invention. EC80 L-AP4 concentration is the concentration giving 80% of the maximal glutamate response.
The concentration-response curves of L-AP4 or representative compounds of the present invention were generated using the Prism GraphPad software (Graph Pad Inc, San Diego, USA). The curves were fitted to a four-parameter logistic equation:
(Y=Bottom+(Top−Bottom)/(1+10^((Log IC50−X)*Hill Slope)
allowing determination of IC50 values.
The Table 3 below represents the mean IC50 obtained from at least three independent experiments of selected molecules performed in duplicate.

Chains of the proteins cited; added tags and fusions are not shown. Residues count along the entry.
UniProt Q14831, 35-922 isoform 2 limits assumed: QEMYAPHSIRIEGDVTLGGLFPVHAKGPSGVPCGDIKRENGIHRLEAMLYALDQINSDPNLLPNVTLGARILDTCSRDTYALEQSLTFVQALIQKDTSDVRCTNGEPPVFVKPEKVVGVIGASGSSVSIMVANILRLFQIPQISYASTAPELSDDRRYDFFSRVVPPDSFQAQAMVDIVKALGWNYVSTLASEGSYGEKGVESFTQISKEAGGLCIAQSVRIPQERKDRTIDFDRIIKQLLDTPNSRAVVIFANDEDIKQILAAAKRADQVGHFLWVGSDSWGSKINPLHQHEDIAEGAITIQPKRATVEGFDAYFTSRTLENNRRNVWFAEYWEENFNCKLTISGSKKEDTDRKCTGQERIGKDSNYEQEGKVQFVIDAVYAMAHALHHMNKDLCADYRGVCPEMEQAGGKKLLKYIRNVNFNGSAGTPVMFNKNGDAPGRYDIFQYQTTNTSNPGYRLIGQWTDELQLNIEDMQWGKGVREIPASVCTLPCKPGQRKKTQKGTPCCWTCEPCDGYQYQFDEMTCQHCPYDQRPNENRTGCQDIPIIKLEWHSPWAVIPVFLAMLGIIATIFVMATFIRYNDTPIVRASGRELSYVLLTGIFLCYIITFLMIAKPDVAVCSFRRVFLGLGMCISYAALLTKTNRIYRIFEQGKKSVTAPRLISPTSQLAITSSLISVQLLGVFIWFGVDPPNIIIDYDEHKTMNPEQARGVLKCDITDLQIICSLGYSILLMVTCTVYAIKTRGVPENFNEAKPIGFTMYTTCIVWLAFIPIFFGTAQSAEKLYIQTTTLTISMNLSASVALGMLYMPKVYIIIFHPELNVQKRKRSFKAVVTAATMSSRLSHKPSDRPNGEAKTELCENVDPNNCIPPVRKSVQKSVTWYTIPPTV

| Structure (SMILES) | IC50 [nM] |
| --- | --- |
| Cc1c(-c2cccc(OC3CC3)c2F)cc2cnn(-c3ncccn3)c(=O)n12 | < 100 |
| Cc1ccc(OC2CC2)cc1-c1cc2cnn(-c3ncccn3)c(=O)n2c1C | < 100 |
| COc1cnc(-n2ncc3c(C)c(-c4cccc(OC5CC5)c4)c(C)n3c2=O)nc1 | 100 to 1000 |
| Cc1c(-c2cccc(OC3CC3)c2)c(C)n2c(=O)n(-c3ncc(OC(F)F)cn3)ncc12 | 100 to 1000 |
| COc1cccc(-c2c(C)c3cnn(-c4ncccn4)c(=O)n3c2C)c1 | < 100 |
| Cc1c(-c2cccc(OC3CC3)c2)c(C)n2c(=O)n(-c3ccc(F)cn3)ncc12 | 100 to 1000 |
| Cc1c(-c2cccc(OC3CC3)c2)c(C)n2c(=O)n(-c3ncc(OCCN(C)C)cn3)ncc12 | 100 to 1000 |
| Cc1c(-c2cccc(OC3CC3)c2)c(C)n2c(=O)n(-c3ccc(C(C)(C)O)cn3)ncc12 | 100 to 1000 |

From US20260184715A1, “NOVEL PYRROLO[1,2-d][1,2,4] TRIAZINONE DERIVATIVES AS NEGATIVE ALLOSTERIC MODULATORS OF MGLU7 RECEPTORS” (Neurosterix Pharma Sarl., priority 2022, published 2026)
